# Results: patent US20060122247A1
# The chains behind the UniProt entries cited, without tags or fusion partners.
# UniProt P61169, whole entry: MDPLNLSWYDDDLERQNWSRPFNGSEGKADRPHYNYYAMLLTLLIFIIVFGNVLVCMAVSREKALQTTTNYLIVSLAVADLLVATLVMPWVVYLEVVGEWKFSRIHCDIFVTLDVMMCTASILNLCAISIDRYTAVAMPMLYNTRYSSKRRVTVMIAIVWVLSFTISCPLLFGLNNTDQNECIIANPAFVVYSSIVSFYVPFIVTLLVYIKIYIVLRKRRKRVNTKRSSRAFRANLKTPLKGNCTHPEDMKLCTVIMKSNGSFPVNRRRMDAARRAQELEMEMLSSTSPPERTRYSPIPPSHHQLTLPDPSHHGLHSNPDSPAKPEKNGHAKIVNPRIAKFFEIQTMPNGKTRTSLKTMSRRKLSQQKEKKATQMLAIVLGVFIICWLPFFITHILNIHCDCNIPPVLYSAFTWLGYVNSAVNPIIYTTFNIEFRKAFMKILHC
# UniProt P31652, whole entry: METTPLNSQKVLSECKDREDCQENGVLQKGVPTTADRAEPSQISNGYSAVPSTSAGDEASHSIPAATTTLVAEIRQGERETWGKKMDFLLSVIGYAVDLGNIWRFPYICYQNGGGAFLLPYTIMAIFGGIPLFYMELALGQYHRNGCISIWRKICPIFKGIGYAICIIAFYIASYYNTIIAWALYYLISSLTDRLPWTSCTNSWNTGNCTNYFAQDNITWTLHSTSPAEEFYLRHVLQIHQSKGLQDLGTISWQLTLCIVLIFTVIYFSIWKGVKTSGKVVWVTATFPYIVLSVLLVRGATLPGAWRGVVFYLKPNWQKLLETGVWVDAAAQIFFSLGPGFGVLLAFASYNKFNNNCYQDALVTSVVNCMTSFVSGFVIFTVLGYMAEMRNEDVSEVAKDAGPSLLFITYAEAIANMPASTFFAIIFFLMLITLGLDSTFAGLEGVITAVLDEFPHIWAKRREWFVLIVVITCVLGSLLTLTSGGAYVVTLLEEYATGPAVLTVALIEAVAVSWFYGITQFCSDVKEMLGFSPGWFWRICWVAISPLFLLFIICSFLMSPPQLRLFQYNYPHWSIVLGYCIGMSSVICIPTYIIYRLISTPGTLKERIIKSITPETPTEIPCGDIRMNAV
# UniProt P14416, whole entry: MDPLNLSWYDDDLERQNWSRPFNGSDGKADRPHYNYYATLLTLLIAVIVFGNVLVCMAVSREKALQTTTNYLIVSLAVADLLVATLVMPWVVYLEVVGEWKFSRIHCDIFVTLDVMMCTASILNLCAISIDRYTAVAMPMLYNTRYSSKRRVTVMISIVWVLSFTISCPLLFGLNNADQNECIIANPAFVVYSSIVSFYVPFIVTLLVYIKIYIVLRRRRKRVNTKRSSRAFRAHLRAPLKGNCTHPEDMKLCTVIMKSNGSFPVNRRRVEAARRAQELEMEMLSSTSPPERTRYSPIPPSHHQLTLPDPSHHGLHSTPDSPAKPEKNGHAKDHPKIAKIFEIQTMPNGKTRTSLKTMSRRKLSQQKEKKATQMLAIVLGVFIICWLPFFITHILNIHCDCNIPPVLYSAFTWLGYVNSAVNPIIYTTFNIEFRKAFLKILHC
# Tests used:
# dopamine-D2 receptors = dopamine-D2 receptors (Rattus norvegicus, UniProt P61169); test: In vitro affinity for dopamine-D2 receptors ([3H]-spiroperidol receptor binding assay)
# Experimental: In Vitro Affinity for Dopamine-D2 Receptors
# Affinity of the compounds for dopamine-D2 receptors was determined using the receptor binding assay described by 1. Creese, R. Schneider and S. H. Snyder: “[^3H]-Spiroperidol labels dopamine receptors in rat pituitary and brain”, Eur. J. Pharmacol., 46, 377-381, 1977.
# serotonin reuptake sites = serotonin reuptake sites (Rattus norvegicus, UniProt P31652); test: In vitro affinity for serotonin reuptake sites ([3H]-paroxetine binding assay)
# Experimental: In Vitro Affinity for Serotonin Reuptake Sites
# Affinity of the compounds for serotonin reuptake sites was determined using the receptor binding assay described by E. Habert et al.,: “Characterisation of [^3H]-paroxetine binding to rat cortical membranes”, Eur. J. Pharmacol., 118, 107-114, 1985.
# [1] = biological target: Human dopamine D2,L receptors (Homo sapiens, UniProt P14416); test: Inhibition of forskolin-induced [3H]-cAMP accumulation in CHO-K1 cells; details: cloned human dopamine D2,L receptors in CHO-K1 cells, full agonist ε=1, full antagonist ε=0
# Experimental: Inhibition of Forskolin-Induced [^3H]-CAMP Accumulation
# The in vitro functional activity at dopamine-D2 receptors, including the intrinsic activity (ε) of the compounds of the invention was measured by their ability to inhibit forskolin-induced [^3H]-cAMP accumulation.
# Human dopamine D2,L receptors were cloned in fibroblast cell line CHO-K1 cells and obtained from Dr. Grandy, Vollum Institute, Portland, Oreg., USA. CHO cells were grown in a Dulbecco's modified Eagle's medium (DMEM) culture medium, supplemented with 10% heat-inactivated fetal calf serum, 2 mM glutamine, 1 mM pyruvate, 5000 units/ml penicillin, 5000 μg/ml streptomycin and 200 μg/ml at 37° C. in 93% air/7% CO2. For incubation with test compounds, confluent cultures grown in 24 wells plates were used. Each condition or substance was routinely tested in quadruplicate. Cells were loaded with 1 μCi [^3H]-adenine in 0.5 ml medium/well. After 2 hours, cultures were washed with 0.5 ml PBS containing 1 mM of the phosphodiesterase inhibitor isobutylmethylxanthine (IBMX) and incubated for 20 min with 0.5 ml PBS containing 1 mM IBMX and forskolin with or without test compound After aspiration the reaction was stopped with 1 ml trichloroacetic acid 5% (w/v). […] Eluates were mixed with 7 ml Insta-gel and radioactivity was counted with a liquid scintillation counter. The conversion of [^3H]-ATP into [^3H]-cAMP was expressed as the ratio in percentage radioactivity in the cAMP fraction as compared to combined radioactivity in both cAMP and ATP fractions, and basal activity was subtracted to correct for spontaneous activity.
# Test compounds were obtained as 10 mM stock solutions in 100% DMSO, and diluted in PBS/IBMX to final concentrations. […] From quadruplicate data counts, the mean was taken as an estimate for drug-induced, receptor-mediated effects at specified second messenger accumulation, expressed as percentage of control values (forskolin-stimulated cAMP accumulation, subtracted by basal activity). […] Antagonist potency is assessed by co-incubating cells with a fixed agonist concentration and specified antagonist concentrations. […]
SMILES,Dopamine-D2 binding pKi (dopamine-D2 receptors; tested form: HCl),5-HT reuptake binding pKi (serotonin reuptake sites; tested form: HCl),Dopamine-D2 cAMP accum ε (intrinsic activity) ([1]; tested form: HCl),Dopamine-D2 binding pKi (dopamine-D2 receptors),5-HT reuptake binding pKi (serotonin reuptake sites),Dopamine-D2 cAMP accum ε (intrinsic activity) [1]
O=c1[nH]c2cccc(OCCN(CCCF)CCCC3=CCc4ccc(F)cc43)c2o1,7.6,>9.0,0.23,–,–,–
CN(CCCc1coc2ccc(F)cc12)CCOc1cccc2[nH]c(=O)oc12,8.0,8.4,0.20,–,–,–
O=c1[nH]c2cccc(OCCNCCCOc3cccc(F)c3)c2o1,–,–,–,8.4,7.4,0.39

# Where two headings read alike, the source gives them in different places.
